Protein sequences, listed by entry. Tags and fused reporters are not part of them. Residues count along the entry.
UniProt P41365, 26-342: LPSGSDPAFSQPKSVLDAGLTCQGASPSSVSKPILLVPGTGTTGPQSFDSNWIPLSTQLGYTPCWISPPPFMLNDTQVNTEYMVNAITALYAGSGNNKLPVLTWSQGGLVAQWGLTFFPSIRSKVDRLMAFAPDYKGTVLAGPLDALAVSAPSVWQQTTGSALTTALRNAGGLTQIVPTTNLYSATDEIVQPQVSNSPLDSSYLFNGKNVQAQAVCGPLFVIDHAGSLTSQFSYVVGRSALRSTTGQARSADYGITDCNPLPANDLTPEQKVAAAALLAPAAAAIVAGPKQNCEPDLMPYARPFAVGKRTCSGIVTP

In patent publication US20120059056A1, “CARBONATE DERIVATIVES AS SKIN CARE” (EASTMAN CHEMICAL COMPANY, priority 2010, published 2012):

Biological target: Novozym 435 (immobilized Candida Antarctica lipase B) (Moesziomyces antarcticus, UniProt P41365)
Test: Enzymatic hydrolysis with Novozym 435 in toluene / pH 7 buffer, HPLC analysis
Conditions: ambient temperature
Procedure: Resveratrol tris(methyl carbonate) (100 mg; 0.249 mmol) was dissolved in 2 mL of toluene. 2 mL of pH 7 buffer was added followed by 100 mg of Novozym 435 (immobilized Candida Antarctica lipase B).
2 mL of pH 7 buffer was added followed by 100 mg of Novozym 435 (immobilized Candida Antarctica lipase B).
Resveratrol tripalmitate (100 mg; 0.11 mmol) was dissolved in 2 mL of toluene. 2 mL of pH 7 buffer was added followed by 100 mg of Novozym 435 (immobilized Candida Antarctica lipase B).
1 mL of pH 7 buffer was added followed by 100 mg of Novozym 435 (immobilized Candida Antarctica lipase B).
Hydroxytyrosol tris(methyl carbonate) (3, R=Me, 100 mg; 0.305 mmol) was dissolved in 2 mL of toluene. 2 mL of pH 7 buffer was added followed by 100 mg of Novozym 435 (immobilized Candida Antarctica lipase B).
Hydroxytyrosol trihexanoate containing 1.9% hydroxytyrosol by HPLC analysis (100 mg; 0.22 mmol) was dissolved in 2 mL of toluene. 2 mL of pH 7 buffer was added followed by 100 mg of Novozym 435 (immobilized Candida Antarctica lipase B).

[1] = 1.5 h, equal volumes of both layers

- 4-hydroxybenzyl alcohol bis(butyl carbonate) remaining by HPLC analysis [1]: 41%
- 4-hydroxybenzyl alcohol mono(butyl carbonate), first of the two, by HPLC analysis [1]: 40%
- 4-hydroxybenzyl alcohol mono(butyl carbonate), second of the two, by HPLC analysis [1]: 14%
- 4-hydroxybenzyl alcohol by HPLC analysis (1.5 h, equal volumes of both layers, analysis stated inaccurate due to insolubility): 1.5%
- mono- and bis-carbonates by HPLC analysis (21 h): very little
Substance: 4-Hydroxybenzyl Alcohol bis(butyl carbonate)
